Laboratory results: ChEMBL document CHEMBL5715947 (Blood Cancer J, 2011)

The chains behind the UniProt entries cited, without tags or fusion partners.
UniProt P36888, whole entry, looked up, stated change not applied: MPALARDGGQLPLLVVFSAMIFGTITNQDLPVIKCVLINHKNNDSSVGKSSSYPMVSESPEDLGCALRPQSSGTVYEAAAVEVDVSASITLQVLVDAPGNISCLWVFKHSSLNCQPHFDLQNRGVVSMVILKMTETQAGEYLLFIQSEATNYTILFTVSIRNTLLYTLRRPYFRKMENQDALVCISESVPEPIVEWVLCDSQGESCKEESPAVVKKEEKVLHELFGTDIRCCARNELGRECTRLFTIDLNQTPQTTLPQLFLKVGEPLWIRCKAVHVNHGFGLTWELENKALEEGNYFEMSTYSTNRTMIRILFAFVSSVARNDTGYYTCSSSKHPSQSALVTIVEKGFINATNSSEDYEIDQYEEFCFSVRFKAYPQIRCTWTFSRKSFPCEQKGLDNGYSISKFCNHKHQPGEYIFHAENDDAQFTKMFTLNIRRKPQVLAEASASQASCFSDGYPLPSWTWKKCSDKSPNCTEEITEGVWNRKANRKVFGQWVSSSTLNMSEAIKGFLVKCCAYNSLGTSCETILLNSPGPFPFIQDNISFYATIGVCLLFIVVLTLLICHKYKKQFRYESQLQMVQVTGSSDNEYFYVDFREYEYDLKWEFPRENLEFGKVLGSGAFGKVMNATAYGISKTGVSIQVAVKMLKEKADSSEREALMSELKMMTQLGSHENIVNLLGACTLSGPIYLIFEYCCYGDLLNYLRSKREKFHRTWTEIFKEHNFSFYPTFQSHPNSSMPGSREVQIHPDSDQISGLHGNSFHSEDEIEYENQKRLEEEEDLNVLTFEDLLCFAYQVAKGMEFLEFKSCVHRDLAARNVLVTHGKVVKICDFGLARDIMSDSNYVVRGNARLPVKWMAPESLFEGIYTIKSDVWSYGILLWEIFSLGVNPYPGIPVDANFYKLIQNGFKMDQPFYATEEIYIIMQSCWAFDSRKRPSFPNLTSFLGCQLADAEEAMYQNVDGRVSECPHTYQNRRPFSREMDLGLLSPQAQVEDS

Key:
[1] = target: T1, Receptor-type tyrosine-protein kinase FLT3 (Homo sapiens, UniProt P36888, ITD)
[2] = target: T2, Receptor-type tyrosine-protein kinase FLT3 (Homo sapiens, UniProt P36888)
[3] = target: T2, Receptor-type tyrosine-protein kinase FLT3; experiment: Inhibition of FLT3 in human RS4-11 cells assessed as reduction in phosphorylated STAT5 protein expression incubated for 3 hrs in presence of FLT3 ligand by Western blot analysis; type: cell-based
[4] = target: T2, Receptor-type tyrosine-protein kinase FLT3; experiment: Inhibition of FLT3 in human RS4-11 cells assessed as reduction in phosphorylated FLT3 protein expression incubated for 3 hrs in presence of FLT3 ligand by Western blot analysis; type: cell-based
[5] = target: T1, Receptor-type tyrosine-protein kinase FLT3; experiment: Inhibition of FLT3-ITD mutant in human MOLM-13 cells assessed as reduction in phosphorylated STAT5 protein expression incubated for 3 hrs in presence of FLT3 ligand by Western blot analysis; type: cell-based
[6] = target: T1, Receptor-type tyrosine-protein kinase FLT3; experiment: Inhibition of FLT3-ITD mutant in human MV4-11 cells assessed as reduction in phosphorylated ERK1/2 protein expression incubated for 3 hrs by Western blot analysis; type: cell-based
[7] = target: T1, Receptor-type tyrosine-protein kinase FLT3; experiment: Inhibition of FLT3-ITD mutant in human MOLM-13 cells assessed as reduction in phosphorylated FLT3 protein expression incubated for 3 hrs in presence of FLT3 ligand by Western blot analysis; type: cell-based
[8] = Antiproliferative activity against relapsed human derived M2 Fab type Acute myeloid leukemic cells assessed as reduction in cell viability incubated for 48 hr by CellTiter-Glo assay; type: functional, cell-based; settings: Leukemia cell
[9] = target: T2, Receptor-type tyrosine-protein kinase FLT3; remark: listed apart in the source
[10] = target: T1, Receptor-type tyrosine-protein kinase FLT3; experiment: Inhibition of FLT3-ITD mutant in human MV4-11 cells assessed as reduction in phosphorylated STAT5 protein expression incubated for 3 hrs by Western blot analysis; type: cell-based
[11] = target: T2, Receptor-type tyrosine-protein kinase FLT3; remark: listed apart in the source
[12] = target: T1, Receptor-type tyrosine-protein kinase FLT3; experiment: Inhibition of FLT3-ITD mutant in human MV4-11 cells assessed as reduction in phosphorylated AKT protein expression incubated for 3 hrs by Western blot analysis; type: cell-based

Structure (SMILES): C1=N/C2=N/c3ccc(OCCN4CCCC4)c(c3)COC/C=C/COCc3cccc(c3)C(=C1)N2 [PACRITINIB]
- IC50 [1]: 80 nM
- IC50 [2]: < 500 nM
- IC50 [3]: 8 nM
- IC50 [4]: 600 nM
- IC50 [5]: 20 nM
- IC50 [6]: 33 nM
- IC50 [7]: 180 nM
- IC50 [8]: 180 nM
- IC50 [9]: < 500 nM
- IC50 [10]: 40 nM
- IC50 [11]: < 500 nM
- IC50 [12]: 29 nM
